Earlier results on 1 molecule are cited in patent US20040132819A1, “Appetite control method” (priority 2002, published 2004).

Amino acid sequences for entries named in this document (tags omitted).
UniProt P47746, whole entry: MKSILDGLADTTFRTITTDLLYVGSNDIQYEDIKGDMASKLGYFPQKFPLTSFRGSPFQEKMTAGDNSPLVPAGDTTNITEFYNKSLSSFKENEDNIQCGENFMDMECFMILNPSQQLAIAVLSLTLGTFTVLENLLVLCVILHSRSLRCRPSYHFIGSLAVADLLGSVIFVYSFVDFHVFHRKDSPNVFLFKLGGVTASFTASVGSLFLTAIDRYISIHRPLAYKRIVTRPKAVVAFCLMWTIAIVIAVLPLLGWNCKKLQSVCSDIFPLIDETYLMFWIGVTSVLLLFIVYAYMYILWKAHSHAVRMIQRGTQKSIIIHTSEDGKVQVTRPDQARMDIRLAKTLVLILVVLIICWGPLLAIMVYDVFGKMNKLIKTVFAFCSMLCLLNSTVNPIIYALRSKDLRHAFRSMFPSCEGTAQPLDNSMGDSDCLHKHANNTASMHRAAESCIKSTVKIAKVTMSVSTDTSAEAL

The structures appear in SMILES notation.

For data set [1] the following is noted: subcutaneous before 1.0 mg/kg 20:4n-6 NAE; cited from earlier work.
Data set [2] concerns the target CB1 receptor (Mus musculus, UniProt P47746). As to conditions: intraperitoneal injection after fasting for 18 hours; cited from earlier work.
For data set [3], the system named is CB1 receptor. As to conditions: intraperitoneal injection after fasting for 18 hours; cited from earlier work.

For the molecule `Cc1c(C(=O)NN2CCCCC2)nn(-c2ccc(Cl)cc2Cl)c1-c1ccc(Cl)cc1` [SR141716A, (N-piperidin-1-yl)-5(4-chlorophenyl)-1-(2,4-dichlorophenyl)-4-methyl-1-H-pyrazole-3-carboxamide], in data set [1], the “effect of pretreatment on 20:4n-6 NAE induced overeating” value is on record as “blocked”. For the same molecule, the “food intake in wild-type controls” value on CB1 receptor [2] is listed as “decreased food intake”. Moreover, the “food intake in CB1 receptor knockout mice” value in the data set with CB1 receptor [3] is reported as “no changes in food intake”.
